Reference: patent US20250034275A1 (CHIA TAI TIANQING PHARMACEUTICAL GROUP, published 2025)

T1: human Trop-2 (on the surface of human cell lines) (human, UniProt P09758 27-323)
T1 construct: Endogenous Trop-2 on NCI-H322, Capan-1, PC-3, HUVEC, OVCAR-3, HCC38 and HCC1806 cells; also called TACSTD2
T1 sequence: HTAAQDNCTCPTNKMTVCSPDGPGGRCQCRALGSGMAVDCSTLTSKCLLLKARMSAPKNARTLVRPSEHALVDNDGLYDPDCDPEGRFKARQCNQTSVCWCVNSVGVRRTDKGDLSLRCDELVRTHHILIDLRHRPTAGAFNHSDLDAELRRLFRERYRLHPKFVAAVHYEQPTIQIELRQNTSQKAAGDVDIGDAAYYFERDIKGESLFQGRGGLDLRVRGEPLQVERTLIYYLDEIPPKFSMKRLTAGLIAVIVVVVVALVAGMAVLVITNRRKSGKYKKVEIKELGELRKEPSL

T2: human Trop-2-His (human, UniProt P09758 27-274, limits assumed)
T2 construct: by analogy with the macaque construct it is probably the extracellular domain with a His tag; also called Trop-2-His protein
T2 sequence: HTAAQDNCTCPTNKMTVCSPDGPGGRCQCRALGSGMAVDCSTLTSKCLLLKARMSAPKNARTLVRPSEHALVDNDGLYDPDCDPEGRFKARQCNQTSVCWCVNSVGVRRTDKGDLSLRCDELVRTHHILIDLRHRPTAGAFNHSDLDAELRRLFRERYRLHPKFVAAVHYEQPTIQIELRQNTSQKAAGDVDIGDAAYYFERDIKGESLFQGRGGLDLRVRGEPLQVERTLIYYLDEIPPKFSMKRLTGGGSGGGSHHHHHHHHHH


Assays:
[1] = target: T1, human Trop-2 (on the surface of human …); assay: flow cytometry, OVCAR-3 cells
Method: (§1) Tumor cells expressing Trop-2 were prepared into a cell suspension (0.5-1×10⁶ cells/mL) using the FACS buffer (Miltenyi Biotec, 130-091-221), and the cell suspension was added to a 96-well V-bottom plate at 100 μL/well. After centrifugation and removal of the supernatant, the test antibodies diluted with the FACS buffer to different concentrations (0.006 nM-100 nM) were each added at 50 μL/well. The mixture was incubated in the dark in a 4° C. refrigerator for 1 h. The plate was then washed 3 times with the FACS buffer by centrifugation at 300 g, and Alexa Fluor 488 goat anti-human IgG (H+L) (Bio-legend, 409304, 1:500 dilution) at working concentration was added. The mixture was incubated in the dark in a 4° C. refrigerator for 40 min. The plate was then washed 3 times with the FACS buffer by centrifugation at 300 g, the geometric mean fluorescence intensity (MFI) was measured on a Sartorius iQue3 flow cytometer, and the binding EC₅₀ values of the antibodies for tumor cells with different Trop-2 expression levels were calculated

[2] = target: T2, human Trop-2-His; assay: ELISA, plate-coated human Trop-2-His
Method: After the liquid was discarded, 2% BSA (SIGMA, B2064-100G) diluted with PBS was added at 300 μL/well for blocking, and the mixture was incubated at 37° C. for 2 h. After the blocking was completed, the blocking buffer was discarded, the plate was washed 3 times with PBST buffer (pH 7.4 PBS containing 0.1% tween-20), the antibody solution diluted in a gradient was added at 100 μL/well, and the mixture was incubated at 37° C. for 1 h. After the incubation was completed, the plate was washed 3 times with PBST, the goat anti-human IgG (H+L) (JacksonImmunoResearch, 109-035-098, 1:5000 dilution) was added at 100 μL/well, and the mixture was incubated at 37° C. for 1 h. After the plate was washed 3 times with PBST, a TMB chromogenic substrate (TIANGEN, PA107-01) was added at 100 μL/well. The mixture was incubated at room temperature for 10-15 min, and then 1 M H₂SO₄ was added at 50 μL/well to terminate the reaction. The absorbance values at 450 nm were taken using a microplate reader. The binding curves of antibodies for antigen were fitted using software, and the EC₅₀ values were calculated. The binding activity of the antibodies for the proteins is shown in Table 5-1, Table 5-2, Table 5-3, and FIG. 1.

[3] = target: T1, human Trop-2 (on the surface of human …); assay: cell-based or functional assay
[4] = target: T1, human Trop-2 (on the surface of human …); assay: flow cytometry, HCC1806 cells
Method: as §1

[5] = target: T1, human Trop-2 (on the surface of human …); assay: cell-based or functional assay; remark: listed apart in the source

EC50 [1] | EC50 [2] | ADCC reporter (Jurkat-CD16a v158-NFAT-luciferase), target cell H322, EC50 [3] | ADCC reporter (Jurkat-CD16a v158-NFAT-luciferase), target cell HCC1806, EC50 [3] | EC50 [4] | Binder | ADCC, PBMC killing (LDH), H322, EC50 [5] | ADCC, PBMC killing (LDH), H322, Maximum killing (%) [5] | ADCC, PBMC killing (LDH), HCC1806, EC50 [5] | ADCC, PBMC killing (LDH), HCC1806, Maximum killing (%) [5]
0.64 nM | 0.042 nM | 0.11 nM | 0.2 nM | 0.54 nM | hz-Ab35-1.3 (antibody, human IgG1, kappa, V domains shown) VH: QVQLVQSGAEVKKPGASVKVSCKASGYTFTSSDINWVRQRPGQGLEWMGWIYPRDGSKKYNEKFKGRVTMTVDTSTSTVYMELSSLRSEDTAVYYCATRFATVVSNYGLDPWGQGTLVTVSS VL: EIVLTQSPATLSLSPGERATLSCSASSSVNYIYWYQRKPGQAPRLLIYDTSNLASGIPARFSGSGSGTDFTLTISSLEPEDFAVYYCQQWNSYPLTFGQGTKVEIKR | 0.02 nM | 51.5% | 0.04 nM | 35.7%
0.57 nM | 0.035 nM | 0.1 nM | 0.28 nM | 0.62 nM | hz-Ab35-1.2 (antibody, human IgG1, kappa, V domains shown) VH: QVQLVQSGAEVKKPGASVKVSCKASGYTFTSSDINWVRQRPGQGLEWMGWIYPRDGSKKYNEKFKGRVTMTVDTSTSTVYMELSSLRSEDTAVYYCARRFATVVSNYGLDPWGQGTLVTVSS VL: EIVLTQSPATLSLSPGERATLSCSASSSVNYIYWYQRKPGQAPRLLIYDTSNLASGIPARFSGSGSGTDFTLTISSLEPEDFAVYYCQQWNSYPLTFGQGTKVEIKR | 0.02 nM | 51.5% | 0.06 nM | 34.9%
0.83 nM | 0.052 nM | 0.09 nM | 0.18 nM | 0.8 nM | hz-Ab35-1.1 (antibody, human IgG1, kappa, V domains shown) VH: QVQLVQSGAEVKKPGASVKVSCKASGYTFTSSDINWVRQRPGQGLEWMGWIYPRDGSKKYAQKFQGRVTMTVDTSTSTVYMELSSLRSEDTAVYYCATRFATVVSNYGLDPWGQGTLVTVSS VL: EIVLTQSPATLSLSPGERATLSCSASSSVNYIYWYQRKPGQAPRLLIYDTSNLASGIPARFSGSGSGTDFTLTISSLEPEDFAVYYCQQWNSYPLTFGQGTKVEIKR | 0.02 nM | 53% | 0.04 nM | 38.5%
